Measured values reported in PubChem BioAssay AID602250 (The Scripps Research Institute Molecular Screening Center, 2012).
This is a selection; strong and weak results do not stand in their true shares. Activity calls are given as the source filed them.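 How the source made its calls: active means inhibition above a per-plate cutoff, the plate's mean sample inhibition plus 3 SD (cut at about 24% in these data); inactive means the rest.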

Assay: calcium signal blockers in parental CHO-K1 cells – cell-based, Fluo-8 calcium fluorescence, full deck, 1536-well, counter-screen for M1 antagonist project, primary screen (AID 602250);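 further: 0% = DMSO plus EC80 ATP and 100% = DMSO alone without ATP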
Conditions: ATP-induced calcium, Fluo-8 fluorescence, at 3 µM, hits give high values
In the case of CCOC(=O)N1CCC(Nc2ccc(C)cc2)CC1, the inhibition is reported as inactive: 6.51%.
With COc1cccc(C(c2nnnn2C(C)(C)C)N2CCC(n3c(=O)[nH]c4ccccc43)CC2)c1OC (stereo not drawn) the inhibition was inactive: 16.9%.
In the case of N/C(=N\O)c1c(N)no[n+]1[O-], the inhibition is reported as inactive: -16.9%.
In the case of O=c1[nH]c2ccccc2n1C1CCN(C(c2cccs2)c2nnnn2C2CCCC2)CC1 (stereo not drawn), the inhibition is reported as inactive: -14.8%.
In the case of O=C(OC1CN2CCC1CC2)C1c2ccccc2C=Cc2ccccc21 (stereo not drawn), the inhibition is reported as inactive: -7.79%.
In the case of CCCCn1nnnc1C(c1cccc(OC)c1OC)N1CCC(n2c(=O)[nH]c3ccccc32)CC1 (stereo not drawn), the inhibition is reported as inactive: 3.15%.
In the case of COc1cc(C(=O)NCC2(N3CCOCC3)CCCCC2)cc(OC)c1C, the inhibition is reported as inactive: -10.2%.
With CCCCn1nnnc1C(c1ccccc1)N1CCC(n2c(=O)[nH]c3ccccc32)CC1 (stereo not drawn) the inhibition was inactive: 9.99%.
In the case of O=C(NCC1(N2CCOCC2)CCCCC1)c1cc(Br)ccc1Cl, the inhibition is reported as inactive: -21.7%.
For O=c1[nH]c2ccccc2n1C1CCN(C(c2cccs2)c2nnnn2C2CCCCC2)CC1 (stereo not drawn), the inhibition was inactive: -10.1%.
With O=c1[nH]c2ccccc2n1C1CCN(C(c2ccnc3ccccc23)c2nnnn2C2CCCC2)CC1 (stereo not drawn) the inhibition was inactive: -17.4%.
For COc1ccc(C(=O)NCC2(N3CCOCC3)CCCCC2)cc1OC, the inhibition was inactive: -12.8%.
In the case of CN(C)C1(CNC(=O)c2cccc(C#N)c2)CCCCC1, the inhibition is reported as inactive: -10.4%.
For O=c1[nH]c2ccccc2n1C1CCN(C(c2ccccc2)c2nnnn2C2CCCC2)CC1 (stereo not drawn), the inhibition was inactive: -21.4%.
In the case of CCCN1CCC(Nc2cc(OC)cc(OC)c2)CC1, the inhibition is reported as inactive: -13.3%.
In the case of Cc1cc(N(CCCl)CCCl)ccc1C=O, the inhibition is reported as inactive: -10.8%.
For c1ccc(CN2CCC(Nc3ccccc3)CC2)cc1, the inhibition was inactive: -9.03%.
For CC(C)(C)n1nnnc1C(c1cccc2ccccc12)N1CCC(n2c(=O)[nH]c3ccccc32)CC1 (stereo not drawn), the inhibition was inactive: -14.2%.
In the case of N#Cc1ccc(C(=O)NCC2(N3CCCCC3)CCCCC2)cc1, the inhibition is reported as inactive: -7.99%.
In the case of CC(C)(C)OC(=O)N1CCC(N(C(=O)c2ccccc2)c2ccc(Cl)cc2)CC1, the inhibition is reported as inactive: -18.9%.
With COc1ccc(C(c2nnnn2C2CCCCC2)N2CCC(n3c(=O)[nH]c4ccccc43)CC2)cc1 (stereo not drawn) the inhibition was inactive: 6.47%.
With CCN1CCC(Nc2cccc(F)c2)CC1 the inhibition was inactive: -2.33%.
With CC(C)(C)n1nnnc1C(c1ccnc2ccccc12)N1CCC(n2c(=O)[nH]c3ccccc32)CC1 (stereo not drawn) the inhibition was inactive: -2.63%.
In the case of Cc1ccccc1NC1(C#N)CCN(Cc2ccccc2)CC1, the inhibition is reported as inactive: -3.63%.
For CN(C)c1ccc(C(=O)NCC2(N3CCCCC3)CCCCC2)cc1, the inhibition was inactive: -19.8%.
With Cn1c(=O)[nH]cc(N(CCCl)CCCl)c1=O the inhibition was inactive: -3.32%.
For O=C(NCC1(N2CCCCC2)CCCCC1)c1ccco1, the inhibition was inactive: -12.6%.
With CCC(c1nnnn1C1CCCCC1)N1CCC(n2c(=O)[nH]c3ccccc32)CC1 (stereo not drawn) the inhibition was inactive: -13.3%.
With COc1cccc(C(c2nnnn2C2CCCCC2)N2CCC(n3c(=O)[nH]c4ccccc43)CC2)c1OC (stereo not drawn) the inhibition was inactive: 0.77%.
In the case of CC(=O)N(c1ccccc1)C1CCNCC1, the inhibition is reported as inactive: -11.9%.
For COc1cc(OC)cc(C(=O)NCC2(N3CCCCC3)CCCCC2)c1, the inhibition was inactive: -20.4%.
In the case of O=c1[nH]c2ccccc2n1C1CCN(C(c2ccnc3ccccc23)c2nnnn2C2CCCCC2)CC1 (stereo not drawn), the inhibition is reported as inactive: -23%.
For Fc1ccccc1NC1CCN(Cc2ccccc2)CC1, the inhibition was inactive: -6.44%.
In the case of Cc1ccc(C(=O)NCC2(N3CCCCC3)CCCCC2)o1, the inhibition is reported as inactive: 0.21%.
For Cc1ccc(NC2(C#N)CCN(Cc3ccccc3)CC2)cc1, the inhibition was inactive: -4.64%.
In the case of COc1cccc(C(c2nnnn2C2CCCC2)N2CCC(n3c(=O)[nH]c4ccccc43)CC2)c1OC (stereo not drawn), the inhibition is reported as inactive: -16.8%.
With COc1cc(OC)cc(C(=O)NCC2(N3CCOCC3)CCCCC2)c1 the inhibition was inactive: -20.6%.
For COc1cccc(C(=O)N(c2cc(C)cc(C)c2)C2CCN(C(=O)OC(C)(C)C)CC2)c1, the inhibition was inactive: -3.49%.
For CCC(CO)(C(=O)OC1CN2CCC1CC2)c1ccccc1 (stereo not drawn), the inhibition was inactive: 22.2%.
In the case of CN1CCC(Nc2ccc(Cl)cc2)CC1, the inhibition is reported as inactive: -3.23%.
In the case of CN1CCC(Nc2ccc(F)c(Cl)c2)CC1, the inhibition is reported as inactive: -6.2%.
In the case of CCOc1ncccc1C(=O)NCC1(N2CCOCC2)CCCCC1, the inhibition is reported as inactive: -0.53%.
With O=C(O)C1(Nc2ccccc2)CCN(Cc2ccccc2)CC1 the inhibition was inactive: -9.41%.
For NN(c1ccccc1)C1CCN(CCc2ccccc2)CC1, the inhibition was inactive: -5.25%.
In the case of CC(C)(C)OC(=O)N1CCC(Nc2ccccc2)CC1, the inhibition is reported as inactive: -7.42%.
For O=c1[nH]c2ccccc2n1C1CCN(C(c2cc3ccccc3o2)c2nnnn2C2CCCC2)CC1 (stereo not drawn), the inhibition was inactive: -25.2%.
In the case of CCCOc1ccc(C(=O)NCC2(N(C)C)CCCCC2)cc1, the inhibition is reported as inactive: -12.4%.
With Cc1cc(C)cc(N(C(=O)c2ccccc2)C2CCN(C(=O)OC(C)(C)C)CC2)c1 the inhibition was inactive: -15.3%.
With O=C(NCC1(N2CCCCC2)CCCCC1)c1ccc(Cl)nc1 the inhibition was inactive: 1.76%.
In the case of O=c1[nH]c2ccccc2n1C1CCN(C(c2ccccc2OC(F)(F)F)c2nnnn2C2CCCCC2)CC1 (stereo not drawn), the inhibition is reported as inactive: 2.72%.
In the case of O=C(NCC1(N2CCOCC2)CCCCC1)c1cc2ccccc2o1, the inhibition is reported as inactive: -3.21%.
With COc1ccc(Cl)cc1C(=O)NCC1(N2CCOCC2)CCCCC1 the inhibition was inactive: -25.8%.
With N#CC1(Nc2ccccc2)CCN(Cc2ccccc2)CC1 the inhibition was inactive: -9.45%.
For O=C(NCC1(N2CCCCC2)CCCCC1)c1ccc(Cl)s1, the inhibition was inactive: -17.4%.
For O=C(OC1CN2CCC1CC2)C1c2ccccc2Oc2ccccc21 (stereo not drawn), the inhibition was inactive: -6.29%.
With O=c1[nH]c2ccccc2n1C1CCN(C(c2cc3ccccc3o2)c2nnnn2C2CCCCC2)CC1 (stereo not drawn) the inhibition was inactive: -9.41%.
In the case of CCCCn1nnnc1C(c1ccc(OC)cc1)N1CCC(n2c(=O)[nH]c3ccccc32)CC1 (stereo not drawn), the inhibition is reported as inactive: -20.1%.
For CCOC(=O)N1CCC(Nc2ccc(OC)cc2)CC1, the inhibition was inactive: -11.3%.
With COc1ccc(C(=O)NCC2(N3CCCCC3)CCCCC2)c(OC)c1OC the inhibition was inactive: -7.03%.
For CC(C)(C)OC(=O)N1CCC(N(C(=O)c2ccccc2)c2ccc(F)cc2)CC1, the inhibition was inactive: -9.82%.
In the case of CCC(c1nnnn1C1CCCC1)N1CCC(n2c(=O)[nH]c3ccccc32)CC1 (stereo not drawn), the inhibition is reported as inactive: -11.5%.
In the case of COc1ccc(C(=O)NCC2(N3CCCCC3)CCCCC2)cc1, the inhibition is reported as inactive: -8.14%.
For CCCCn1nnnc1C(CC)N1CCC(n2c(=O)[nH]c3ccccc32)CC1 (stereo not drawn), the inhibition was inactive: -6.47%.
With O=C(NCC1(N2CCCCC2)CCCCC1)c1cccs1 the inhibition was inactive: 3.82%.
In the case of CCCCn1nnnc1C(c1cccs1)N1CCC(n2c(=O)[nH]c3ccccc32)CC1 (stereo not drawn), the inhibition is reported as inactive: 21.9%.
In the case of O=C(NCC1(N2CCCCC2)CCCCC1)c1ccc(=O)[nH]c1, the inhibition is reported as inactive: -6.51%.
In the case of Cc1cccc(NC2(C#N)CCN(Cc3ccccc3)CC2)c1, the inhibition is reported as inactive: -21.6%.
With CSc1ccccc1C(=O)NCC1(N2CCCCC2)CCCCC1 the inhibition was inactive: -6.22%.
For O=c1[nH]c2ccccc2n1C1CCN(C(c2ccccc2)c2nnnn2C2CCCCC2)CC1 (stereo not drawn), the inhibition was inactive: -2.47%.
For CCOC(=O)N1CCC(Nc2cccc(C)c2)CC1, the inhibition was inactive: -7.63%.
For COc1cc(C(=O)NCC2(N(C)C)CCCCC2)ccc1OC(F)F, the inhibition was inactive: 12.4%.
For O=c1[nH]c2ccccc2n1C1CCN(C(c2cccc3ccccc23)c2nnnn2C2CCCC2)CC1 (stereo not drawn), the inhibition was inactive: -3.29%.
With O=C1CCN(Cc2ccccc2)CC1 the inhibition was inactive: -12.7%.
With CC(C)(C)n1nnnc1C(c1ccccc1)N1CCC(n2c(=O)[nH]c3ccccc32)CC1 (stereo not drawn) the inhibition was inactive: 9.27%.
For CCOc1ccc(C)cc1CN(CCCl)CCCl, the inhibition was inactive: -0.04%.
For COc1ccc(NC2CCN(CCc3ccccc3)CC2)c(OC)c1, the inhibition was inactive: -28.4%.
With CCOC(=O)N1CCC(Nc2ccc(F)cc2)CC1 the inhibition was inactive: -1.92%.
For O=P1(N(CCCl)CCCl)SCCCS1, the inhibition was inactive: -2.77%.
For CCCCn1nnnc1C(c1cc2ccccc2o1)N1CCC(n2c(=O)[nH]c3ccccc32)CC1 (stereo not drawn), the inhibition was inactive: -23.3%.
In the case of CCCCOc1ccc(C(=O)NCC2(N3CCOCC3)CCCCC2)cc1, the inhibition is reported as inactive: -10.9%.
In the case of O=C(NCC1(N2CCCCC2)CCCCC1)c1ccc(F)cc1, the inhibition is reported as inactive: -1.51%.
In the case of O=C(NCC1(N2CCCCC2)CCCCC1)c1cccc(C(F)(F)F)c1, the inhibition is reported as inactive: -20.4%.
In the case of COc1cc(C(=O)NCC2(N3CCCCC3)CCCCC2)ccc1OC(F)F, the inhibition is reported as inactive: -7.14%.
For O=C(NCC1(N2CCOCC2)CCCCC1)c1cc(=O)[nH]c2ccccc12, the inhibition was inactive: -13.4%.
For CN1CCN(CCOC(=O)C(O)(c2ccccc2)c2ccccc2)CC1, the inhibition was inactive: -0.09%.
With COc1ccc(NC2CCN(C(=O)OC(C)(C)C)CC2)cc1 the inhibition was inactive: -13.3%.
With CC(C)c1ccc(C(=O)NCC2(N3CCOCC3)CCCCC2)cc1 the inhibition was inactive: -3.91%.
For CCCCn1nnnc1C(c1cccc2ccccc12)N1CCC(n2c(=O)[nH]c3ccccc32)CC1 (stereo not drawn), the inhibition was inactive: -30.9%.
With O=C(NCC1(N2CCCCC2)CCCCC1)c1ccc(OC(F)F)cc1 the inhibition was inactive: -9.52%.
For CC(C)(C)n1nnnc1C(c1ccccc1OC(F)(F)F)N1CCC(n2c(=O)[nH]c3ccccc32)CC1 (stereo not drawn), the inhibition was inactive: -20.4%.
For O=c1[nH]c2ccccc2n1C1CCN(C(c2ccccc2OC(F)(F)F)c2nnnn2C2CCCC2)CC1 (stereo not drawn), the inhibition was inactive: -6.59%.
With N#CC1(Nc2ccccc2)CCN(CCc2ccccc2)CC1 the inhibition was inactive: -14.2%.
In the case of CCN1CCC(Nc2ccc(Cl)cc2)CC1, the inhibition is reported as inactive: -6.09%.
For CSc1ccc(C(=O)NCC2(N3CCOCC3)CCCCC2)cc1, the inhibition was inactive: -9.82%.
For O=C(NCC1(N2CCCCC2)CCCCC1)c1cccc([N+](=O)[O-])c1, the inhibition was inactive: -18.8%.
With CN1CCC(Nc2cccc(F)c2)CC1 the inhibition was inactive: -4.32%.
With O=C(NCC1(N2CCCCC2)CCCCC1)c1cncc(Br)c1 the inhibition was inactive: -15.6%.
For COc1ccc(C(c2nnnn2C2CCCC2)N2CCC(n3c(=O)[nH]c4ccccc43)CC2)cc1 (stereo not drawn), the inhibition was inactive: 1.24%.
With CCCOc1ccc(C(=O)NCC2(N(C)C)CCCCC2)cc1OC the inhibition was inactive: -17.5%.
In the case of Cc1ccc(C(=O)NCC2(N(C)C)CCCCC2)o1, the inhibition is reported as inactive: 7.56%.
For CC(C)c1ccc(NC2CCN(C(=O)OC(C)(C)C)CC2)cc1, the inhibition was inactive: -9.7%.
With CCCCn1nnnc1C(c1ccccc1OC(F)(F)F)N1CCC(n2c(=O)[nH]c3ccccc32)CC1 (stereo not drawn) the inhibition was inactive: -34%.
In the case of CN(C)c1cccc(C(=O)NCC2(N3CCCCC3)CCCCC2)c1, the inhibition is reported as inactive: -8.84%.
For COc1ccc(CN(CCCl)CCCl)cc1Cl, the inhibition was inactive: -6.77%.
With CCC(c1nnnn1C(C)(C)C)N1CCC(n2c(=O)[nH]c3ccccc32)CC1 (stereo not drawn) the inhibition was inactive: -15.8%.
With O=C(NCC1(N2CCOCC2)CCCCC1)c1cc(F)c(F)cc1Cl the inhibition was inactive: -11.4%.
In the case of COc1cc(OC)c(C(=O)NCC2(N(C)C)CCCCC2)cc1OC, the inhibition is reported as inactive: 4.61%.
In the case of CCCCn1nnnc1C(c1ccnc2ccccc12)N1CCC(n2c(=O)[nH]c3ccccc32)CC1 (stereo not drawn), the inhibition is reported as inactive: 0.99%.
